The source of these data is patent US5597899A, “Tumor necrosis factor muteins” (Hoffmann-La Roche Inc., priority 1993, dated 1997).

The subject of one series is human TNFR-p55. The series is described as follows: Solid phase radioligand competition binding assay, E. coli lysates, TNFR-p55. As to conditions: 10-fold serial dilutions 10^-2 to 10^-7, < = inhibition but below 50% at 1:100, << = no measurable inhibition at 1:100. As to the method: (§1) After 20 min incubation at room temperature 50 μl of 1M MgCl2, 20 μl of 5 mg/ml DNaseI, 50 μl of 5M NaCl and 50 μl of 10% NP-40 were added and the mixture was further incubated at room temperature for 15 min. 0.5 ml of the lysate clarified by centrifugation at 13'000 rpm for 5 min was subjected to ammonium sulfate precipitation (25%-70% cut). The 70% ammonium sulfat pellet was dissolved in 0.2 ml PBS and analyzed by sodium dodecyl sulfate polyacrylamide gel electrophoresis (SDS-PAGE) to confirm presence and approximate amount of the recombinant proteins.
TNFα was labelled by the Iodogen method (Pierce Chemical Company) to a specific activity of about 10-30 μCi/μg. The volume was 100 μl/well and each lysate dilution was assayed in duplicate or triplicate. After three hours at room temperature the wells were thoroughly washed with PBS and counted in a γ-counter. The results are given in Table 2 for lysates comprising the muteins indicated therein.
Background: In a radioligand displacement assay an active substance lowers the binding of a labelled ligand.

A further series deals with human TNFR-p75. As to the kind of experiment: Solid phase radioligand competition binding assay, E. coli lysates, TNFR-p75. Conditions: 10-fold serial dilutions 10^-2 to 10^-7, < = inhibition but below 50% at 1:100, << = no measurable inhibition at 1:100. As to the method: as §1, with “10 ml suspensions of E. coli cells transformed and induced as described in Examples I and II were centrifuged at 4'000 rpm for 10 min and resuspended in 0.9 ml of lysis buffer (10 mM Tris-HCl pH 8.0, 5 mM EDTA, 2 mM PMSF, 10 mM benzamidine, 200 units/ml aprotinine and 0.1 mg/ml lysozyme). After” for “After”
96 well microtiter plates were coated with recombinant human […] TNFR-p75-hγ3 and TNFR-p55-hγ3 fusion proteins (extracellular portion of the receptor fused to the Fc part of human IgG3) at a concentration of 0.3 μg/ml and 0.1 μg/ml, respectively, in phosphate buffered saline (PBS, 100 μl/well, overnight at 4° C.) [Loetscher, H. et al. J. Biol. Chem. 266, 18324-18329 (1991); Lesslauer, W. et al. Eur. J. Immunol. 21, 2883-2886 (1991)]. […] After three hours at room temperature the wells were thoroughly washed with PBS and counted in a γ-counter. […]

In a further series the test system is C57B16 mice. As to conditions: cited from earlier work.

Consider “wildtype: (wild-type) human TNF-α, 157 amino acids, SEQ ID:2 [reference compound]”, for which the “Dilution of E. coli Lysate for 50% Inhibition of 125I-TNFα Binding (ID50) TNFR-p55” value in the series with human TNFR-p55 is 14,260 fold. Further, the “Dilution of E. coli Lysate for 50% Inhibition of 125I-TNFα Binding (ID50) TNFR-p75” value in the series with human TNFR-p75 is on record as 14,140 fold. Moreover, the LD50 with C57B16 mice was roughly 500 μg/mouse.
